Antibody variant affinities, Ab-14 light chain, assay B

The measurements come from Li et al. 2023 (doi:10.1038/s41467-023-39022-2) through the FLAb antibody collection.

All variants were tested on one target, the spike HR2 peptide PDVDLGDISGINAS (SARS-CoV-2).

Each scFv is VH, a 15-residue (Gly4Ser)3 linker, VL, as in the parent Ab-14, and differs from it in the CDRs of the light chain only.
VH: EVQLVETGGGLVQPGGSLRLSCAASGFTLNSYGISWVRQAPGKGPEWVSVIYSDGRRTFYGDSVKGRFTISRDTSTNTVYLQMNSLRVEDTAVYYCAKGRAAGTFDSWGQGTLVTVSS
VL: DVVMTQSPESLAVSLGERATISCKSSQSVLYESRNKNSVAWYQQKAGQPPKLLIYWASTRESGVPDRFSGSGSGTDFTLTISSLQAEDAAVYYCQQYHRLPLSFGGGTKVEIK

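Designed CDR sequences, proposed from the first random library and measured here. Their group label is 14L_GP_Gen (GP: Gaussian process model; Gen: genetic algorithm; a sequence that several methods proposed may carry one label only). In AlphaSeq, yeast of one mating type display the scFv and yeast of the other type display the target. Pairs that bind mate more often; barcode pairs of the diploids are counted by sequencing. Read counts were normalised to the haploid input and turned into Kd by a linear fit to BCL2-family pairs of known affinity, for each replicate. Each pool was mated in six replicate cultures.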

Each variant is given by its three light chain CDRs, as the data file delimits them; those of the parent are KSSQSVLYESRNKNSVA, WASTRES, QQYHRLPLS. The read-out is the apparent dissociation constant on a log10 scale (nM): the lower, the stronger. Averages over replicates are reported, and they cover detected replicates only.

CDR-L1	CDR-L2	CDR-L3	replicates, log10 nM	mean log10 Kd (nM)	empty controls
KVSQSVPYESRNKNSVA	QASTRES	QQYHRLPLS	0.29 / -0.10 / 0.05 / -0.12 / -0.27 / 0.15	0.00	0/18
KLSMSVLMESRNKNSVA	EASTRES	QQYHRLPLS	-0.06 / -0.18 / -0.30 / -0.07 / -0.25 / 0.05	-0.14	0/18
KLSQSNLYESRNKNSVA	NASQRCS	QQYHRLPLS	0.57 / 0.69 / 1.01 / 0.41 / 0.19 / 0.42	0.55	0/18
KLSQSYLYESRNKNSVA	NASQREQ	QQYHRLPLS	-0.26 / -0.24 / -0.44 / -0.41 / -0.20 / -0.14	-0.28	3/18 (3.20)
KLQQSVLYESRNKNSVA	DASTRES	QQYHRLPLS	-0.29 / -0.14 / -0.25 / -0.25 / -0.29 / 0.09	-0.19	0/18
KLSQSVPYEWRNKNSVA	NASTRES	QQYHRLPLS	0.38 / 0.14 / 0.14 / 0.04 / -0.13 / 0.18	0.13	4/18 (3.24)
KLEQSHLYESRNKNNVA	NASTRES	QQYHRLPLS	0.08 / 0.12 / 0.07 / 0.06 / -0.09 / 0.15	0.06	3/18 (2.67)
KLSQSVLYESRNKNSVA	GASHRES	QQYHRLPLS	0.28 / 0.13 / 0.14 / 0.09 / 0.24 / 0.41	0.21	0/18
KLPQSVGYESRNKNSVA	EASTRES	QQYHRLPLS	0.12 / -0.07 / 0.08 / -0.04 / -0.11 / 0.22	0.03	0/18
FLSQSVLYESRNKNSVA	NASTRLS	QQYHRLPLS	0.25 / 0.16 / -0.15 / 0.02 / -0.14 / 0.29	0.07	1/18 (2.06)
KLSQSWGYESRNKNSVA	EASTRES	QQYHRLPLS	0.03 / 0.02 / 0.03 / -0.10 / -0.20 / -0.13	-0.06	2/18 (3.29)
KLSQSELYESRNKNSVA	NASQRLS	QQYHRLPLS	0.04 / -0.09 / -0.25 / -0.26 / -0.29 / -0.08	-0.15	1/18 (2.59)
KLYQSVGYESRNKNSVA	NASTRES	QQYHRLPLS	0.50 / 0.44 / 0.22 / 0.34 / 0.57 / 0.44	0.42	0/18
KLSQSELYESRNKNSVA	EASTRCD	QQYHRLPLS	-0.10 / -0.08 / -0.08 / -0.31 / -0.11 / 0.05	-0.11	0/18
KLSMSVLYESRNKNNVA	DASTRES	QQYHRLPLS	-0.09 / -0.07 / -0.26 / -0.41 / -0.34 / -0.15	-0.22	0/18
KLPQSVLYESRNKNSVA	QASTREV	QQYHRLPLS	-0.21 / -0.30 / -0.28 / -0.32 / -0.37 / -0.03	-0.25	1/18 (2.01)
KVQQSQLYESRNKNSVA	HASTRES	QQYHRLPLS	0.02 / 0.00 / 0.33 / 0.16 / -0.06 / 0.25	0.12	0/18
KLRQSTLYESRNKNSVA	NASTRES	QQYHRLPLS	-0.23 / -0.27 / -0.36 / -0.45 / -0.29 / -0.16	-0.29	1/18 (2.68)
KLSQSELYESRNKNSVA	NASMRES	QQYHRLPLS	0.07 / -0.16 / 0.23 / 0.13 / 0.05 / -0.26	0.01	1/18 (1.97)
KVSQSVLYESRNKNSVA	DASTRES	QQYHRLPLQ	-0.15 / -0.06 / -0.12 / -0.38 / -0.25 / -0.10	-0.18	0/18
KVDQSVLYESRNKNSVA	DASTRES	QQYHRLPLS	0.99 / 0.40 / 0.46 / -0.33 / 0.33 / 1.15	0.50	0/18
KLSQSVLYESRDKNSVA	NASTRMS	QQYHRLPLS	0.51 / 0.76 / 0.19 / 0.05 / 0.19 / 0.47	0.36	1/18 (1.43)
KISQSVGYESRNKNSVA	NASTRES	QQYHRLPLS	-0.01 / -0.16 / -0.31 / -0.53 / -0.38 / 0.00	-0.23	1/18 (2.52)
KLSQSVLYESRQKNSVA	NASTREQ	QQYHRLPLS	0.10 / -0.10 / -0.09 / -0.19 / -0.20 / 0.19	-0.05	3/18 (2.03)
KLSESWLYESRNKNSVA	HASTRES	QQYHRLPLS	0.09 / -0.01 / -0.33 / -0.49 / -0.28 / -0.12	-0.19	0/18
KLSQSVPYESRNKNSVA	NASTRES	QQYHRLPLM	0.29 / 0.09 / 0.27 / -0.10 / 0.11 / 0.34	0.17	2/18 (2.40)
KLSQSFLYESRNKNSVA	EASTREQ	QQYHRLPLS	-0.12 / -0.13 / -0.18 / -0.23 / -0.17 / 0.06	-0.13	1/18 (2.00)
KLSQSDLYESRNKNNVA	HASTRCS	QQYHRLPLS	0.02 / 0.04 / -0.33 / 0.02 / 0.01 / 0.02	-0.04	1/18 (2.97)
KSSQSMLYESRNKNSVA	DASQRES	QQYHRLPLS	0.48 / 0.35 / -0.03 / -0.30 / 0.11 / -0.05	0.10	1/18 (3.42)
KVSQSVLYESRNPNSVA	NASQRES	QQYHRLPLS	0.28 / -0.07 / 0.05 / 0.04 / 0.01 / 0.38	0.12	3/18 (2.75)
KFSQSQLYESRNKNSVA	NASQRES	QQYHRLPLS	-0.10 / -0.29 / -0.25 / -0.26 / -0.33 / -0.14	-0.23	0/18
KLEQSHLYESRNKNSVA	NASTRLS	QQYHRLPLS	-0.03 / 0.02 / -0.08 / -0.17 / -0.16 / 0.21	-0.03	2/18 (2.90)
KLSQSWLYESRAKNSVA	NASQRES	QQYHRLPLS	0.47 / -0.20 / -0.22 / -0.20 / -0.03 / -0.28	-0.08	0/18
KLSGSQLYESRNKNSVA	EASTRES	QQYHRLPLS	-0.15 / -0.30 / -0.40 / -0.55 / -0.44 / -0.31	-0.36	3/18 (2.87)
KVSQSWLYESRNKNSVA	HASQRES	QQYHRLPLS	-0.23 / -0.09 / -0.17 / -0.27 / -0.25 / -0.17	-0.20	1/18 (2.66)
KLSQSVLYESRQKNSVA	NASTRCS	QQYHRLPLS	0.01 / -0.44 / -0.82 / -0.87 / -0.41 / -0.13	-0.44	0/18
KLSQSHLYESRNKNSVA	NASYRLS	QQYHRLPLS	0.18 / -0.07 / -0.06 / -0.10 / -0.12 / 0.02	-0.03	2/18 (2.43)
KLEQSFLYESRNKNSVA	NASQRES	QQYHRLPLS	-0.38 / -0.56 / -0.75 / -0.66 / -0.60 / -0.05	-0.50	1/18 (3.19)
KVSQSDLYESRNKNSVA	EASTRES	QQYHRLPLS	-0.24 / -0.51 / -0.38 / -0.41 / -0.38 / -0.41	-0.39	0/18
KLSGSDLYESRNKNSVA	GASTRES	QQYHRLPLS	-0.47 / -0.59 / -0.54 / -0.68 / -0.71 / -0.72	-0.62	2/18 (3.45)
KLQQSVLYESRNKNSVA	NASQRMS	QQYHRLPLS	0.23 / 0.14 / 0.09 / -0.05 / 0.03 / 0.31	0.12	3/18 (3.21)
KLPQSHLYESRNKNSVA	HASTRLS	QQYHRLPLS	1.37 / 0.90 / 1.08 / 0.77 / 0.92 / 0.76	0.97	1/18 (2.80)
KVSQSHLYESRNKNQVA	DASTRES	QQYHRLPLS	-0.12 / -0.41 / -0.53 / -0.48 / -0.71 / -0.41	-0.44	0/18

For reference, 7 entries of the list once more:

CDR-L1,CDR-L2,CDR-L3,"replicates, log10 nM",mean log10 Kd (nM),empty controls
KLSQSWLYESRAKNSVA,NASQRES,QQYHRLPLS,0.47 / -0.20 / -0.22 / -0.20 / -0.03 / -0.28,-0.08,0/18
KVSQSHLYESRNKNQVA,DASTRES,QQYHRLPLS,-0.12 / -0.41 / -0.53 / -0.48 / -0.71 / -0.41,-0.44,0/18
KLQQSVLYESRNKNSVA,DASTRES,QQYHRLPLS,-0.29 / -0.14 / -0.25 / -0.25 / -0.29 / 0.09,-0.19,0/18
KLSQSVLYESRDKNSVA,NASTRMS,QQYHRLPLS,0.51 / 0.76 / 0.19 / 0.05 / 0.19 / 0.47,0.36,1/18 (1.43)
KLSQSNLYESRNKNSVA,NASQRCS,QQYHRLPLS,0.57 / 0.69 / 1.01 / 0.41 / 0.19 / 0.42,0.55,0/18
KLYQSVGYESRNKNSVA,NASTRES,QQYHRLPLS,0.50 / 0.44 / 0.22 / 0.34 / 0.57 / 0.44,0.42,0/18
KLSQSVLYESRQKNSVA,NASTRCS,QQYHRLPLS,0.01 / -0.44 / -0.82 / -0.87 / -0.41 / -0.13,-0.44,0/18

Empty control strains, which show no peptide, gave a signal in 4% of pairings with all light chain designs; the median was 2.64 and 95% of these signals were weaker than 1.59. No background was subtracted. Also given: how often the same scFv was detected with the empty control strains, with their mean in brackets. In the paper, a design with two or fewer of six values counts as a poor binder. The range of this assay differs from that of the first round, and the authors advise against merging the two.